These results are taken from PubChem BioAssay AID504842 (National Center for Advancing Translational Sciences (NCATS), 2011).

The entries are a selection whose mix differs from that of the whole data set. The source made the active and inactive calls. The call rests on the fitted dose curve; in most records, active means well fitted inhibition curve with a large enough effect; inconclusive means small, poorly fitted or top-dose-only effect; inactive means flat fitted curve, though single readings scatter.
On the % scale 0 is the no-effect control and ±100 the full control effect.

In the test the test system is Chaperonin Mm-Cpn (Methanococcus maripaludis). The test can be described thus: Inhibitors of TCP-1 ring complex (TRiC) of Methanococcus maripaludis (MmCpn): qHTS. Further: nearly all actives have a fitted effect of over 80% in size. Conditions: purified Mm-Cpn ATPase, ADP Transcreener TR-FRET; at 76.9 µM (top of the series). From the text: The eukaryotic chaperonin TRiC (for TCP-1 ring complex) is an essential and conserved chaperone required for the folding and activation of 10-15% of the proteins encoded by the human genome. […] The TRiC complex consist of two stacked 7-9 membered rings, each containing a central cavity. Substrates are folded within the cavity in an ATP-dependent manner. TRiC is a complex of eight different, essential proteins. As each of the genes encoding the eight subunits is essential for cell viability and no protocol has been developed to over-express this enzyme to high levels. That is why several groups studying the TRiC chaperonin have turned to the archaeal homolog of TRiC, Methanococcus maripaludis (Mm-CPN), and have used this enzyme as a model system for the study of the type II chaperonin family. Small molecule inhibitors of the Mm-CPN enzyme would be extremely useful to study the mechanism of chaperonin activity. Importantly, TRiC and Mm-CPN both require ATP hydrolysis for function. Furthermore, the ATP binding sites are highly conserved among these type II chaperonins. This provides us with an easy, well tested and straightforward assay to identify inhibitors of chaperonin activity. The Mm-CPN assay was developed in 1536-well plate format using the HTRF Transcreener ADP assay kit (Cisbio, Bedford, MA). This assay applied the time resolved fluorescence resonance energy transfer (TR-FRET) principle. ATP in the presence of Mm-CPN is converted to ADP + Pi. An antibody labeled with Eu3+-Cryptate specific and bound to ADP labeled with […] (d2) competes with the unlabeled ADP generated by Mm-CPN. The resulting TR-FRET signal is inversely proportional to the concentration of ADP in the sample. In this assay a reduction in TR-FRET signal is observed with ATP turnover. NIH Chemical Genomics Center [NCGC] NIH Molecular Libraries Probe Centers Network [MLPCN] MLPCN Grant: DA030554-01A1 Assay Submitter (PI): Judith Frydman, Stanford University
Purified Mm-CPN was supplied by the laboratory of Dr. Judith Frydman. Protein samples were stored at -80C as single use aliquots. Protein was thawed in ambient temperature water bath and placed on ice once thawed. Buffer was prepared fresh day of screen. The buffer composition below was used to prepare the working solution of the Mm-CPN protein and ATP substrate. The buffer is comprised of 30 mM TRIS pH 7.4, 100mM KCl, 5mM MgCl2, and 1mM DTT. A final concentration of 25nM Mm-CPN and 10uM ATP per well were used in the screen. Instructions according to the manufacturer were followed for the ADP Transcreener kit. Used 1536 well Greiner white, medium binding (MB), solid bottom plates. Plates were read on the PerkinElmer EnVision plate reader using Excitation = 320 nm and Emission = […], 665 nm. Protocol- 1.Dispense 1.5ul per well of working [Mm-CPN] = 50nM (or 75 ng / well) 2.Spin plate at 1000 rpm for 30 seconds 3.23nl of compound transferred per well 4.Incubate at 37degC for 10 minutes 5.Dispense 1.5ul per well of working [ATP] = 20uM 6.Incubate at 37degC for 30 minutes 7.Dispense 3ul per well of Anti-ADP Cryptate / ADP-d2 mix (prepared as instructed by Cisbio) 8.Incubate at ambient for 30 minutes 9.Read using EnVision
In the case of `COc1ccccc1OP(C)(=O)Nc1ccc(Br)cc1` (stereo not given), the activity, negative = inhibition is inactive: -0.492%.

Turning to `COc1ccc(OP(C)(=O)Nc2ccccn2)cc1` (stereo not given), the activity, negative = inhibition was inactive: -1.38%.

Turning to `CN(C)CCOC(=O)C(O)(c1ccccc1)C1CCCC1` (stereo not given), the activity, negative = inhibition was inactive: -0.837%. The result for `O=[N+]([O-])c1cc([N+](=O)[O-])c(Nc2ccccn2)c([N+](=O)[O-])c1` reads inactive: -0.298%; that for `Cc1c(NP(C)(=O)Oc2ccc(C(C)C)cc2)c(=O)n(-c2ccccc2)n1C` (stereo not given), inactive: 2.22%. Under `COc1ccccc1OP(C)(=O)Nc1ccc(C)cc1C` (stereo not given) stands inactive: -3.45%; under `CP(=O)(Nc1ccccn1)Oc1ccccc1` (stereo not given), inactive: -0.709%. Turning to `CCc1ccc(OP(C)(=O)O)cc1`, the activity, negative = inhibition is inactive: -0.523%. Under `Cc1cc(C)cc(OP(C)(=O)Nc2cccc(C(F)(F)F)c2)c1` (stereo not given) stands inactive: -5.02%. `COc1ccccc1OP(C)(=O)Nc1ccc(C)c(C)c1` (stereo not given): the activity, negative = inhibition is inactive: -1.43%. The result for `COc1ccc(OP(C)(=O)Nc2ccccc2Br)cc1` (stereo not given) reads inactive: 0.357%; that for `Cc1nc2ccc3ccccc3c2o1.O=[N+]([O-])c1cc([N+](=O)[O-])c(O)c([N+](=O)[O-])c1`, inactive: 2.29%. Under `CP(=O)(OCCOc1ccccc1)OCCOc1ccccc1` stands inactive: -3.43%; under `CP(=O)(Nc1ccc(Cl)cc1Cl)Oc1ccccc1` (stereo not given), inactive: -4.37%. The result for `CCOC(=O)c1ccc(NP(C)(=O)Oc2ccc(Cl)cc2)cc1` (stereo not given) reads inactive: -9.84%; that for `CP(=O)(OC12CC3CC(CC(C3)C1)C2)OC12CC3CC(CC(C3)C1)C2`, inactive: -1.04%; that for `COc1ccc(OP(C)(=O)Nc2ccc(Br)cc2)cc1` (stereo not given), inactive: 1.85%. In the case of `CCN(CC)CC(O)COC(=O)C(O)(c1ccccc1)C1CCCCC1` (stereo not given), the activity, negative = inhibition is inactive: 0.256%.

On to `O=C(OCCCN1CCCC1)C(O)(c1ccccc1)C1CCCCC1` (stereo not given), for which the activity, negative = inhibition is inactive: -0.127%. Take `COc1ccccc1OP(C)(=O)Nc1c(C)n(C)n(-c2ccccc2)c1=O` (stereo not given): the activity, negative = inhibition was inactive: -3.25%. On to `CCc1ccc(OP(C)(=O)Nc2cccnc2)cc1` (stereo not given), for which the activity, negative = inhibition is inactive: 0.389%. Under `CP(=O)(Oc1ccccc1)N1CCOC1=O` (stereo not given) stands inactive: 0.102%; under `CC(C)(C)c1ccc(OP(C)(=O)O)cc1`, inactive: -2.28%.

Regarding `COc1ccccc1OP(C)(=O)Nc1ccccc1Br` (stereo not given), the activity, negative = inhibition was inactive: -9.46%. The result for `CP(=O)(Nc1ccc(Cl)cc1)Oc1ccc(F)cc1` (stereo not given) reads inactive: 0.831%; that for `CN(C)C(=O)c1c([N+](=O)[O-])cc([N+](=O)[O-])cc1[N+](=O)[O-]`, inactive: -1.14%. In the case of `CP(=O)(Nc1ccc(SC(F)(F)F)cc1)Oc1ccc(F)cc1` (stereo not given), the activity, negative = inhibition was inactive: 1.64%. Turning to `CCOP(C)(=S)SCC(=O)NC(C)(CC)C(=O)O` (stereo not given), the activity, negative = inhibition is inactive: 0.993%.

Consider `CP(=O)(Nc1ccc2c(c1)OCCO2)Oc1ccccc1` (stereo not given), for which the activity, negative = inhibition was inactive: 1.45%. With `Cc1ccccc1NP(C)(=O)Nc1ccccc1C`, the activity, negative = inhibition is inactive: -0.538%. The result for `COc1ccc(OP(C)(=O)Nc2cccc(Br)c2)cc1` (stereo not given) reads inactive: -2.26%; that for `CN(C)CCOC(=O)C(O)(c1ccccc1)C1CCCCC1` (stereo not given), inactive: 0.014%; that for `COc1ccc(NP(C)(=O)Oc2ccccc2OC)cc1` (stereo not given), inactive: -0.337%.

As to `O=[N+]([O-])c1ccc(OP2(=O)COCCO2)cc1` (stereo not given), the activity, negative = inhibition was inactive: -0.713%. As for `Cc1cc(-c2cccc3ccccc23)c(C)cn1.O=[N+]([O-])c1cc([N+](=O)[O-])c(O)c([N+](=O)[O-])c1`, the activity, negative = inhibition is inactive: 1.01%.

Take `CCOC(=O)c1ccc(NP(C)(=O)Oc2ccc(F)cc2)cc1` (stereo not given): the activity, negative = inhibition is inactive: 2.14%. The result for `COc1ccc(OP(C)(=O)Nc2ccc(SC(F)(F)F)cc2)cc1` (stereo not given) reads inactive: 1.15%; that for `CCN(CC)CCCOC(=O)C(O)(c1ccccc1)C1CCCCC1` (stereo not given), inactive: 0.216%; that for `CP(=O)(Nc1ccccc1)Oc1ccc(F)cc1` (stereo not given), inactive: -0.33%. The result for `CCCCCOc1ccc(NP(C)(=O)Oc2ccc(Cl)cc2Cl)cc1` (stereo not given) reads inactive: -8.37%; that for `CP(=O)(Nc1ccccc1F)Oc1ccccc1` (stereo not given), inactive: 0.025%. Consider `CC(C)c1ccc(OP(C)(=O)Nc2ccc(SC(F)(F)F)cc2)cc1` (stereo not given), for which the activity, negative = inhibition is inactive: 1.49%.

In the case of `O=C(OCCN1CCN(CCOCc2ccccc2)CC1)C(O)(c1ccccc1)c1ccccc1`, the activity, negative = inhibition is inactive: -0.838%. Consider `COc1ccccc1OP(C)(=O)Nc1cccc(Br)c1` (stereo not given), for which the activity, negative = inhibition is inactive: -0.645%.

For the compound `CCOC(=O)c1ccc(NP(C)(=O)Oc2cc(C)cc(C)c2)cc1` (stereo not given), the activity, negative = inhibition was inactive: 0.256%. For `Cc1cc(C)cc(OP(C)(=O)Nc2ccc(C)cc2C)c1` (stereo not given), the activity, negative = inhibition was inactive: -1.71%. Under `Cc1ccc(C)c(NP(C)(=O)Oc2ccccc2)c1` (stereo not given) stands inactive: 2.02%; under `CP(=O)(Nc1cccc(Br)c1)Oc1ccccc1` (stereo not given), inactive: -0.492%. Under `Cc1cc(C)cc(OP(C)(=O)Nc2ccccn2)c1` (stereo not given) stands inactive: -2.21%. The result for `CC1=NCCc2c1[nH]c1ccccc21.O=[N+]([O-])c1cc([N+](=O)[O-])c(O)c([N+](=O)[O-])c1` reads inactive: -5.43%; that for `O=[N+]([O-])c1cc([N+](=O)[O-])c(Nc2nnnn2CCO)c([N+](=O)[O-])c1`, inactive: -0.351%.

Regarding `CC1=C2N=C(C=C3N=C(C(C)=C4[N-][C@@](C)([C@@H]5N=C1[C@](C)(CCC(=O)NC[C@@H](C)OP(=O)([O-])O[C@H]1[C@@H](O)[C@@H](n6cnc7cc(C)c(C)cc76)O[C@@H]1CO)[C@H]5CC(N)=O)[C@@](C)(CC(N)=O)[C@@H]4CCC(N)=O)[C@@](C)(CC(N)=O)[C@@H]3CCC(N)=O)C(C)(C)[C@@H]2CCC(N)=O.[C-]#N.[Co+3]`, the activity, negative = inhibition was inactive: -1.17%. Under `CN1CCCCC1COC(=O)C1(O)c2ccccc2CCc2ccccc21` (stereo not given) stands inactive: 0.6%; under `COc1ccccc1OP(C)(=O)Nc1c(C)cccc1C` (stereo not given), inactive: 0.423%; under `CP(=O)(Nc1ccc(SC(F)(F)F)cc1)Oc1ccccc1` (stereo not given), inactive: 1.39%. `CCCOc1ccc(NP(C)(=O)Oc2ccc(Cl)cc2)cc1` (stereo not given): the activity, negative = inhibition was inactive: -1.97%. The result for `O=[N+]([O-])c1cc([N+](=O)[O-])c(-n2nnc3ccccc32)c([N+](=O)[O-])c1` reads inactive: -4.38%. The result for `Cc1nc2ccc3ccccc3c2s1.O=[N+]([O-])c1cc([N+](=O)[O-])c(O)c([N+](=O)[O-])c1` reads inactive: 0.299%; that for `CP(=O)(Oc1ccccc1)OC(c1ccccc1)C(F)(F)F` (stereo not given), inactive: -0.547%; that for `CP(=O)(Nc1ccc(SC(F)(F)F)cc1)Oc1ccc(Cl)cc1` (stereo not given), inactive: 0.308%. Under `Cc1cccc(C)c1OP(C)(=O)Nc1ccc(SC(F)(F)F)cc1` (stereo not given) stands inactive: 0.372%. Turning to `Cc1cc(C)cc(OP(C)(=O)Nc2ccc(SC(F)(F)F)cc2)c1` (stereo not given), the activity, negative = inhibition is inactive: -1.3%. The result for `CCc1ccc(OP(C)(=O)N2CCN(c3ccc([N+](=O)[O-])cc3)CC2)cc1` (stereo not given) reads inactive: -0.428%; that for `CP(=O)(NC(=O)Nc1ccccc1)Oc1ccccc1` (stereo not given), inactive: -1.81%. Under `CCOC(=O)c1ccc(NP(C)(=O)Oc2ccc(OC)cc2)cc1` (stereo not given) stands inactive: -0.265%; under `CCOP(C)(=S)SCC(=O)NC(C)C(=O)O` (stereo not given), inactive: -0.405%.

Take `CP(=S)(Nn1cnnc1)Oc1ccccc1` (stereo not given): the activity, negative = inhibition was inactive: 0.587%. Regarding `CP(=O)(Nc1ccccc1Br)Oc1ccccc1` (stereo not given), the activity, negative = inhibition was inactive: -0.193%.

For `COc1ccccc1OP(C)(=O)Nc1ccccc1` (stereo not given), the activity, negative = inhibition was inactive: -1.09%. The result for `O=[N+]([O-])c1cc([N+](=O)[O-])c(Nc2cccnc2)c([N+](=O)[O-])c1` reads inactive: -0.199%; that for `O=[N+]([O-])c1ccc2c(c1)C=Nc1ccccc1O2`, inactive: -0.0106%.

Take `Cc1cccc(C)c1OP(C)(N)=O` (stereo not given): the activity, negative = inhibition was inactive: 1.94%. Under `CC(C)(C)c1ccc(OP(C)(=O)Nc2ccc(SC(F)(F)F)cc2)cc1` (stereo not given) stands inactive: -2.57%. The result for `Cc1ccc(NP(C)(=O)Oc2ccccc2)c(C)c1` (stereo not given) reads inactive: -0.453%; that for `COc1ccccc1OP(C)(=O)Nc1ccc(C)cc1` (stereo not given), inactive: 1.27%; that for `CCOC(=O)c1ccc(NP(C)(=O)Oc2ccccc2)cc1` (stereo not given), inactive: -0.774%. Under `Cc1cc(C)cc(OP(C)(N)=O)c1` (stereo not given) stands inactive: -3.27%. Regarding `COc1ccc(OP(C)(=O)Nc2cccc(F)c2)cc1` (stereo not given), the activity, negative = inhibition was inactive: -0.713%. As for `COc1ccccc1OP(C)(=O)Nc1cc(Cl)ccc1C` (stereo not given), the activity, negative = inhibition was inactive: 0.173%.

`CCN(CC)CCCOC(=O)C(O)(c1ccccc1)c1ccccc1`: the activity, negative = inhibition was inactive: -2.46%.
